The entries are a selection whose mix differs from that of the whole data set. Some structures show a salt or complex split into parts, the way the source records it. Activity calls are given as the source filed them. Rule as the data show it: active = inhibition mostly above about 24% (no sharp cut-off); inactive = mostly below about 32%.
Assay: NALP1 inflammasome inhibitors in reconstituted yeast, colorimetric, S. cerevisiae, triplicate retest (AID 2071)
Settings: S. cerevisiae NALP1/ASC/caspase-1 growth, X-gal OD620, 72 h; at 10 µM; hits give high values

**Q.** For `O=C(OCCN1CCN(CCOCc2ccccc2)CC1)C(O)(c1ccccc1)c1ccccc1`, which inhibition is on record?
**A.** The inhibition was inactive: 37.6%.

**Q.** For `O=C(OC1CN2CCC1CC2)c1ccc([N+](=O)[O-])cc1` (stereo unspecified), which inhibition is on record?
**A.** The inhibition was active: 38.8%.

**Q.** With `COc1ccc2c(c1O)-c1c(O)c(OC)cc3c1[C@H](C2)[N+](C)(C)CC3.O=[N+]([O-])c1cc([N+](=O)[O-])c([O-])c([N+](=O)[O-])c1[O-]` as the compound, how does the inhibition read?
**A.** Its inhibition is inactive: 7.8%.

**Q.** For `CC(C)c1ccc(OP(C)(=O)Nc2ccc(SC(F)(F)F)cc2)cc1` (stereo unspecified), which inhibition is on record?
**A.** The inhibition was inactive: 37.5%.

**Q.** For `CP(=O)(Nc1ccccc1F)Oc1ccccc1` (stereo unspecified), which inhibition is on record?
**A.** The inhibition was inactive: 22%.

**Q.** Which inhibition does the source give for `CCN(CC)CCCOC(=O)C(O)(c1ccccc1)C1CCCCC1` (stereo unspecified) here?
**A.** The inhibition was inactive: 5.7%.

**Q.** With `O=[N+]([O-])c1cc([N+](=O)[O-])c(OC2CCCCC2O)c([N+](=O)[O-])c1` (stereo unspecified) as the compound, how does the inhibition read?
**A.** The inhibition was inactive: -8.9%.

**Q.** For `CCCCCOc1ccc(NP(C)(=O)Oc2ccc(Cl)cc2Cl)cc1` (stereo unspecified), which inhibition is on record?
**A.** The inhibition was inactive: 16.1%.

**Q.** With `CP(=O)(Nc1ccccc1)Oc1ccc(F)cc1` (stereo unspecified) as the compound, how does the inhibition read?
**A.** The inhibition was inactive: 7%.

**Q.** For `COc1ccc(OP(C)(=O)Nc2ccc(SC(F)(F)F)cc2)cc1` (stereo unspecified), which inhibition is on record?
**A.** The inhibition was inactive: 10.4%.

**Q.** With `CCOC(=O)c1ccc(NP(C)(=O)Oc2ccc(F)cc2)cc1` (stereo unspecified) as the compound, how does the inhibition read?
**A.** The inhibition was inactive: 25.2%.

**Q.** With `Cc1cc(-c2cccc3ccccc23)c(C)cn1.O=[N+]([O-])c1cc([N+](=O)[O-])c(O)c([N+](=O)[O-])c1` as the compound, how does the inhibition read?
**A.** The inhibition was inactive: -6.6%.

**Q.** For `O=[N+]([O-])c1cc([N+](=O)[O-])c(NCC2CCS(=O)(=O)C2)c([N+](=O)[O-])c1` (stereo unspecified), which inhibition is on record?
**A.** The inhibition was inactive: -7%.

**Q.** Which inhibition does the source give for `O=[N+]([O-])c1ccc(OP2(=O)COCCO2)cc1` (stereo unspecified) here?
**A.** Its inhibition is inactive: -4%.

**Q.** Which inhibition does the source give for `COc1ccc(OP(C)(=O)Nc2cccc(Br)c2)cc1` (stereo unspecified) here?
**A.** The inhibition was inactive: -15.9%.

**Q.** With `COc1ccc(NP(C)(=O)Oc2ccccc2OC)cc1` (stereo unspecified) as the compound, how does the inhibition read?
**A.** Its inhibition is inactive: 7.9%.

**Q.** For `CN(C)CCOC(=O)C(O)(c1ccccc1)C1CCCCC1` (stereo unspecified), which inhibition is on record?
**A.** Its inhibition is inactive: 29.7%.

**Q.** For `CP(=O)(Nc1ccc2c(c1)OCCO2)Oc1ccccc1` (stereo unspecified), which inhibition is on record?
**A.** Its inhibition is inactive: 4.2%.

**Q.** Which inhibition does the source give for `Cc1ccccc1NP(C)(=O)Nc1ccccc1C` here?
**A.** Its inhibition is inactive: -0.2%.

**Q.** With `CP(=O)(Nc1ccc(SC(F)(F)F)cc1)Oc1ccc(F)cc1` (stereo unspecified) as the compound, how does the inhibition read?
**A.** Its inhibition is inactive: 14.6%.

**Q.** For `CCOP(C)(=S)SCC(=O)NC(C)(CC)C(=O)O` (stereo unspecified), which inhibition is on record?
**A.** The inhibition was inactive: 27.5%.

**Q.** Which inhibition does the source give for `CP(=O)(Nc1ccc(Cl)cc1)Oc1ccc(F)cc1` (stereo unspecified) here?
**A.** Its inhibition is inactive: -0.2%.

**Q.** With `CC(C)(C)c1ccc(OP(C)(=O)O)cc1` as the compound, how does the inhibition read?
**A.** Its inhibition is inactive: 0.5%.

**Q.** For `COc1ccccc1OP(C)(=O)Nc1ccccc1Br` (stereo unspecified), which inhibition is on record?
**A.** The inhibition was inactive: 15.3%.

**Q.** With `CN(C)C(=O)c1c([N+](=O)[O-])cc([N+](=O)[O-])cc1[N+](=O)[O-]` as the compound, how does the inhibition read?
**A.** Its inhibition is inactive: 1.3%.

**Q.** With `CCN(CC)CC(O)COC(=O)C(O)(c1ccccc1)C1CCCCC1` (stereo unspecified) as the compound, how does the inhibition read?
**A.** The inhibition was inactive: 11.5%.
